{"source": "patent US20070078109A1", "about": "“Compositions and methods used to treat acne and candida” (priority 2004, published 2007)", "key": {"acne": {"system": "acne", "conditions": "acne patients, 4% active AGP formula"}, "[1]": {"system": "C. albicans isolates, including one fluconazole-resistant strain", "conditions": "AGP at 0.25% topical, 1-7 days", "method": "Pre-clinical studies with three C. albicans isolates, including one fluconazole-resistant strain, were performed using immunosuppressed animals with cyclophosphamide."}}, "data": [{"substance": "N-acetylglucoseamine (AGA)-glucosamine (GA)-pyrithione (PR) [AGP]", "values": [{"measurement": "irritation or other side effects", "setting": "acne", "value": "no irritation or other side effects"}, {"measurement": "local adverse effects", "setting": "[1]", "value": "free of local adverse effects"}]}]}
